Sequences of proteins named here, by UniProt entry; tags and fusion partners are left off.
UniProt Q15858, whole entry, looked up: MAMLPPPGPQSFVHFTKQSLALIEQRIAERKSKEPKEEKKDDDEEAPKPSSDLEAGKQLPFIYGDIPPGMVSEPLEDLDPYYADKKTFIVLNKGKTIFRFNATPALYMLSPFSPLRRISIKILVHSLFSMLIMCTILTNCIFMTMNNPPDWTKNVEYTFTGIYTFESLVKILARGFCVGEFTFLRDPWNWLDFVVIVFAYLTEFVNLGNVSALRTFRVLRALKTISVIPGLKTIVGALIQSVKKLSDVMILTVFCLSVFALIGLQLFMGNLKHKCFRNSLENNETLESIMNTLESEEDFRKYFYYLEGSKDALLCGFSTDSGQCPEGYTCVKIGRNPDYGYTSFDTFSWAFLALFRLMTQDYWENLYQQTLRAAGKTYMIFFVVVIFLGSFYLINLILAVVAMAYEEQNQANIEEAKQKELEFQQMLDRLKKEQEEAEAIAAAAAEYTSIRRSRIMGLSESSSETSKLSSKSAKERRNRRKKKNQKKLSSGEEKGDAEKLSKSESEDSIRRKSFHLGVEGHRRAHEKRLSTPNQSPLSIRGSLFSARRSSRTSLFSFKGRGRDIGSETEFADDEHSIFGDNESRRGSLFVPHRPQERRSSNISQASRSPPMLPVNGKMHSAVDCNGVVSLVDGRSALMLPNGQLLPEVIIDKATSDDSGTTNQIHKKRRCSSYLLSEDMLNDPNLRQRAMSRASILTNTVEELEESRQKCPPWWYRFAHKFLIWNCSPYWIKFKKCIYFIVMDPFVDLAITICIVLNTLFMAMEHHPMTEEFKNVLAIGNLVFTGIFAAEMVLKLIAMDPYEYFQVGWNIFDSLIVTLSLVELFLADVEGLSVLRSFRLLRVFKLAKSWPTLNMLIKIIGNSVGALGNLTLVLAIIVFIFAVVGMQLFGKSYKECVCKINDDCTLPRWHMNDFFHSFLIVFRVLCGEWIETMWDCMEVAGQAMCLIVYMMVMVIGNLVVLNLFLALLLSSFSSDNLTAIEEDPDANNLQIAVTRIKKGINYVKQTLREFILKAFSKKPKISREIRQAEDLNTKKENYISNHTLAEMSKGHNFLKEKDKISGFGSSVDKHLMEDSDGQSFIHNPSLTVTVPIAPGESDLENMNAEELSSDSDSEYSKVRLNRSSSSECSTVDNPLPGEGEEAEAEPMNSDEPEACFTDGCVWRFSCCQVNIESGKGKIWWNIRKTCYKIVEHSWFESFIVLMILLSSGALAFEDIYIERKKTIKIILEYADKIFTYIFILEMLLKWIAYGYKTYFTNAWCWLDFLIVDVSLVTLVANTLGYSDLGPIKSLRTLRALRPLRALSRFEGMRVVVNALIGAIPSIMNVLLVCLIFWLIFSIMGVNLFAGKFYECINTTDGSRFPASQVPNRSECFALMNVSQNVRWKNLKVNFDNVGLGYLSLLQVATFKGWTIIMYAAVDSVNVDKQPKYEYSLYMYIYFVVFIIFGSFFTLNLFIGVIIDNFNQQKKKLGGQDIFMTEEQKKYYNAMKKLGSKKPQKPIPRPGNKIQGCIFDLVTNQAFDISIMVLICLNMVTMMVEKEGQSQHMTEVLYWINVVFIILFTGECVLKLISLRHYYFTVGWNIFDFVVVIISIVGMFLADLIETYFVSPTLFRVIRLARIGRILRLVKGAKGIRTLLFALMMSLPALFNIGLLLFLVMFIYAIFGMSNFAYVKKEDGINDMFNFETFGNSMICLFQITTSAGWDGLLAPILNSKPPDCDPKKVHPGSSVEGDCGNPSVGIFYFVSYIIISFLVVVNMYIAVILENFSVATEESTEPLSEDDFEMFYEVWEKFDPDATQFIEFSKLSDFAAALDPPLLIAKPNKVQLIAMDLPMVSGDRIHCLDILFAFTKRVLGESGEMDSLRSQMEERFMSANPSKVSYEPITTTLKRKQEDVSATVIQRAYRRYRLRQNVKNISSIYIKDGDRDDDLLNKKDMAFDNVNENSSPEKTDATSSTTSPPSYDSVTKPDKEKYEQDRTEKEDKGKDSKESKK

According to ChEMBL document CHEMBL6087427, “Discovery of novel cyclopentane carboxylic acids as potent and selective inhibitors of NaV1.7” (Bioorg Med Chem Lett, 2025):

Target: Sodium channel protein type 9 subunit alpha (Homo sapiens, UniProt Q15858)
Assay: Inhibition of human Nav1.7 assessed as fold shift in IC50 in presence of BSA by sodium flux assay

fold change (FC): 0.75
SMILES: C[C@@H]1[C@@H](C(=O)O)[C@H](C(=O)c2cc(C3CC3)c(OCC3CCN(Cc4c(Cl)cccc4Cl)CC3)cc2F)C[C@@H]1F
